Reference: ChEMBL document CHEMBL5212743, “Selectivity Literature for EUbOPEN Chemogenomics Library wave 3” (2023)

Amino acid sequences for entries named in this document (tags omitted). Residues count along the entry.
UniProt P00742, 41-179 limits assumed: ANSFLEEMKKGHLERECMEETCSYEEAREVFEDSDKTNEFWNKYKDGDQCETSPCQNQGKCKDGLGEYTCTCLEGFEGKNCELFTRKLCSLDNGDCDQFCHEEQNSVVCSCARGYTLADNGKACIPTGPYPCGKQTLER
UniProt P00742, 235-488 limits assumed: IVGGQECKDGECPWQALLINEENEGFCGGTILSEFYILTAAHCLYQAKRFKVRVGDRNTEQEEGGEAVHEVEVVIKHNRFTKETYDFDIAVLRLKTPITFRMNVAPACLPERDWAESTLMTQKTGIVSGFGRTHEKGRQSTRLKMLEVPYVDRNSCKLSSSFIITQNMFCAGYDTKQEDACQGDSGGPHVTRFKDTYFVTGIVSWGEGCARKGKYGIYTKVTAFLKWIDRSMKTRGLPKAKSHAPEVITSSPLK

What was measured:
[1] = target: Coagulation factor X (Homo sapiens, UniProt P00742); experiment: Selectivity interaction (Serine protease panel) EUB0000735a F10
[2] = target: Prothrombin (Homo sapiens, UniProt P00734); experiment: Selectivity interaction (Serine protease panel) EUB0000735a F2
[3] = target: Urokinase-type plasminogen activator (Homo sapiens, UniProt P00749); experiment: Selectivity interaction (Serine protease panel) EUB0000735a PLAU

Measured: IC50

CC(=O)C1=C(C)N(c2cccc(C(F)(F)F)c2)C(=O)N[C@@H]1c1ccc(C#N)nc1 [BAY-678]
> 30 µM: [1] | [2] | [3]
